Test results from publication PMC9822402, “Investigation on Hydrazonobenzenesulfonamides as Human Carbonic Anhydrase I, II, IX and XII Inhibitors” (Molecules, 2022).

Protein sequences, listed by entry. Tags and fused reporters are not part of them. Residues count along the entry.
UniProt P00915, 2-261: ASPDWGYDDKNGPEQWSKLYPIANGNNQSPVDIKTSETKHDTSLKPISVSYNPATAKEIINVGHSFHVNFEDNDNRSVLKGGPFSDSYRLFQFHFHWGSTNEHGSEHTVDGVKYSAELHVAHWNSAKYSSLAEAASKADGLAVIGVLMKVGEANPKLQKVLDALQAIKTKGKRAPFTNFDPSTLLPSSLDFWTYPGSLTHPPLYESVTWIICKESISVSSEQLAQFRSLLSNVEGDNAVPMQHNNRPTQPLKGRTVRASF

Assays:
hCA II = biological target: T1, hCA II (Homo sapiens, UniProt P00918); assay: stopped-flow CO2 hydrase assay; assay type: biochemical; details: CO2 […]; […] HEPES pH […] Na2SO4, phenol red; […] min preincubation at room temperature; read-out: KI (nM) ^1 / CAII
T1 construct: gene CA2; recombinant, obtained in-house
Text: stopped-flow CO2 hydrase assay on hCA II

hCA I = biological target: T2, hCA I (Homo sapiens, UniProt P00915); assay: stopped-flow CO2 hydrase assay; assay type: biochemical; details: CO2 […]; […] HEPES pH […] Na2SO4, phenol red; […] min preincubation at room temperature; read-out: KI (nM) ^1 / CAI
T2 construct: gene CA1; recombinant, obtained in-house

Row | Ki (hCA II) [nM] | Ki (hCA I) [nM] | Substance
1 | 4.27 | 45 | (E)-4-(4-(2-(4-(diethylamino)benzylidene)hydrazinecarbonyl)piperidine-1-carbonyl)benzenesulfonamide [compound 29]
2 | 5.39 | 1060 | (E)-4-(4-(2-(4-(dimethylamino)benzylidene)hydrazinecarbonyl)piperidine-1-carbonyl)benzenesulfonamide [compound 28]
